Experiments:
CBP BRD protein = CBP BRD protein (Homo sapiens, UniProt Q92793); test: CBP bromodomain TR-FRET inhibitory activity assay; conditions: read-out: CBP BRD IC50, Table 3
BRD4 (BD1) protein = BRD4 (BD1) protein (Homo sapiens, UniProt O60885); test: BRD4 bromodomain TR-FRET inhibitory activity assay; conditions: read-out: BRD4 (BD1) IC50, Table 4

Chains of the proteins cited; added tags and fusions are not shown. Residues count along the entry.
UniProt Q92793, 1085-1192 limits assumed: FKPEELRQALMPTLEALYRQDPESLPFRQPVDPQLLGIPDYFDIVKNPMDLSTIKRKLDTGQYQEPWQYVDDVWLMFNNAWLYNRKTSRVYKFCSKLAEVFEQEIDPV

Row | Structure (SMILES) | IC50 (CBP BRD protein) | IC50 (BRD4 (BD1) protein)
1 | Cc1noc(-c2cc3nc(C(C)(C)C)n(-c4cc(NC(C)C)c5c(c4)n(C)c(=O)n5C)c3cc2F)n1 | < 500 nM | > 5000 nM
2 | Cn1cc(-c2cc3nc(-c4cncn4C)n(-c4cc(C5=CCN(C(=O)OC(C)(C)C)CC5)c5c(c4)n(C)c(=O)n5C)c3cc2F)cn1 | < 500 nM | > 5000 nM
3 | Cn1cc(-c2cc3nc(C(C)(C)C)n(-c4cc(N5CCC(C)(O)C5)c5c(c4)n(C)c(=O)n5C)c3cc2C(F)F)cn1 (stereo not shown) | < 500 nM | > 5000 nM
4 | CC(C)CNc1cc(-n2c(-c3cncn3C)nc3cc(-c4cnn(C)c4)c(F)cc32)cc2c1n(C)c(=O)n2C | < 500 nM | > 5000 nM
5 | COC1(C)CN(c2cc(-n3c(C(C)(C)C)nc4cc(-c5cnn(C)c5)c(C(F)F)cc43)cc3c2n(C)c(=O)n3C)C1 | < 500 nM | > 5000 nM
6 | COc1cccc(-c2cc3nc(-c4cncn4C)n(-c4ccc5c(c4)n(C)c(=O)n5C)c3cc2F)c1 | < 500 nM | > 5000 nM
7 | Cn1cc(-c2cc3nc(C(C)(C)C)n(-c4cc(N5CC(F)(F)C5)c5c(c4)n(C)c(=O)n5C)c3cc2C(F)F)cn1 | < 500 nM | > 5000 nM
8 | CC(=O)Nc1ccc(-c2cc3nc(-c4cncn4C)n(-c4ccc5c(c4)n(C)c(=O)n5C)c3cc2F)cc1 | < 500 nM | 500 to 5000 nM
9 | Cn1c(=O)n(C)c2c(N3CCOCC3)cc(-n3c(C(C)(C)C)nc4cc(C(=O)O)c(F)cc43)cc21 | 500 to 5000 nM | > 5000 nM
10 | Cc1ncc(-c2cc3nc(C(C)(C)C)n(-c4cc(OCCN5CCOCC5)c5c(c4)n(C)c(=O)n5C)c3cc2C(F)F)s1 | < 500 nM | > 5000 nM
11 | Cn1cc(-c2cc3nc(-c4cncs4)n(-c4cc(N5CC(C)(O)C5)c5c(c4)n(C)c(=O)n5C)c3cc2C(F)F)cn1 | < 500 nM | 500 to 5000 nM
12 | CNC(=O)c1cc2nc(C(C)(C)C)n(-c3cc(N4CCOCC4)c4c(c3)n(C)c(=O)n4C)c2cc1F | 500 to 5000 nM | > 5000 nM
13 | Cn1cc(-c2cc3nc(C(C)(C)C)n(-c4cc(N5CCC5)c5c(c4)n(C)c(=O)n5C)c3cc2F)cn1 | < 500 nM | > 5000 nM
14 | Cn1cc(-c2cc3nc(-c4cncn4C)n(-c4cc(N5CCCCC5)c5c(c4)n(C)c(=O)n5C)c3cc2F)cn1 | < 500 nM | > 5000 nM
15 | Cn1cc(-c2cc3nc(C(C)(C)C)n(-c4cc(N5CCOCC5)c5c(c4)n(C)c(=O)n5C)c3cc2C#N)cn1 | < 500 nM | > 5000 nM
16 | Cn1cncc1-c1nc2cc(-c3ccc(N)cc3)c(F)cc2n1-c1cc(C2CCOCC2)c2c(c1)n(C)c(=O)n2C | < 500 nM | > 5000 nM
17 | Cn1cc(-c2cc3nc(-c4cncn4C)n(-c4cc(N5CCC(O)C5)c5c(c4)n(C)c(=O)n5C)c3cc2F)cn1 (stereo not shown) | < 500 nM | 500 to 5000 nM
18 | Cc1ncc(-c2cc3nc(C(C)(C)C)n(-c4cc(N5CCOCC5)c5c(c4)n(C)c(=O)n5C)c3cc2OC(F)F)s1 | < 500 nM | > 5000 nM
19 | Cn1cc(-c2cc3nc(-c4cncn4C)n(-c4cc(N5CC(C)(O)C5)c5c(c4)n(C)c(=O)n5C)c3cc2C(F)F)cn1 | < 500 nM | 500 to 5000 nM
20 | Cn1cc(-c2cc3nc(-c4cncn4C)n(-c4cc(C5CCOCC5)c5c(c4)n(C)c(=O)n5C)c3cc2C#N)cn1 | < 500 nM | > 5000 nM
21 | C#Cc1cc(-n2c(-c3cncn3C)nc3cc(-c4cnn(C)c4)c(F)cc32)cc2c1n(C)c(=O)n2C | < 500 nM | > 5000 nM

Row | Structure (SMILES) | IC50 (CBP BRD protein) | IC50 (BRD4 (BD1) protein)
22 | Cn1cc(-c2cc3nc(C(C)(C)C)n(-c4cc(N5CCC(O)CC5)c5c(c4)n(C)c(=O)n5C)c3cc2C(F)F)cn1 | < 500 nM | > 5000 nM
23 | Cn1cc(-c2cc3nc(C(C)(C)C)n(-c4cc(Oc5ccc(F)cc5)c5c(c4)n(C)c(=O)n5C)c3cc2C(F)F)cn1 | < 500 nM | > 5000 nM
24 | COC1(C)CN(c2cc(-n3c(-c4cncn4C)nc4cc(-c5cnn(C)c5)c(C(F)(F)F)cc43)cc3c2n(C)c(=O)n3C)C1 | < 500 nM | 500 to 5000 nM
25 | COc1cc(OC)cc(-c2cc3nc(C(C)(C)C)n(-c4cc(N5CC(C)(O)C5)c5c(c4)n(C)c(=O)n5C)c3cc2C(F)F)c1 | < 500 nM | > 5000 nM
26 | Cn1cc(-c2cc3nc(-c4cncn4C)n(-c4cc(N5CCOCC5)c5c(c4)n(C)c(=O)n5C)c3cn2)cn1 | < 500 nM | > 5000 nM
27 | CC(C)C(=O)Nc1ccc(-c2cc3nc(-c4cncn4C)n(-c4ccc5c(c4)n(C)c(=O)n5C)c3cc2F)cc1 | < 500 nM | > 5000 nM
28 | Cn1cc(-c2cc3nc(-c4cncn4C)n(-c4cc(NC5CCCC5)c5c(c4)n(C)c(=O)n5C)c3cc2F)cn1 | < 500 nM | > 5000 nM
29 | CC(C)c1cc(-n2c(C(C)(C)C)nc3cc(-c4cnn(C)c4)c(F)cc32)cc2c1n(C)c(=O)n2C | < 500 nM | > 5000 nM
30 | CC(C)Nc1cc(-n2c(C(C)(C)C)nc3cc(-c4cnn(C)c4)c(C(F)(F)F)cc32)cc2c1n(C)c(=O)n2C | < 500 nM | > 5000 nM
31 | Cn1cc(-c2cc3nc(-c4cncn4C)n(-c4cc(N5CC(C)(O)C5)c5c(c4)n(C)c(=O)n5C)c3cc2C#N)cn1 | < 500 nM | 500 to 5000 nM
32 | Cn1cc(-c2cc3nc(-c4cncn4C)n(-c4cc(Nc5ccccc5)c5c(c4)n(C)c(=O)n5C)c3cc2F)cn1 | 500 to 5000 nM | > 5000 nM
33 | Cn1cc(-c2cc3nc(C(C)(C)C)n(-c4cc(N5CC(C)(O)C5)c5c(c4)n(C)c(=O)n5C)c3cc2C(F)(F)F)cn1 | < 500 nM | > 5000 nM
34 | Cn1cc(-c2cc3nc(-c4cncn4C)n(-c4cc(C5CCOCC5)c5c(c4)n(C)c(=O)n5C)c3cc2C(F)F)cn1 | < 500 nM | > 5000 nM
35 | CN1CCN(c2cc(-n3c(-c4cncn4C)nc4cc(-c5cnn(C)c5)c(F)cc43)cc3c2n(C)c(=O)n3C)CC1 | < 500 nM | > 5000 nM
36 | Cn1cc(-c2cc3nc(-c4cncnc4)n(-c4cc(N5CC(C)(O)C5)c5c(c4)n(C)c(=O)n5C)c3cc2C(F)F)cn1 | < 500 nM | > 5000 nM
37 | Cn1cc(-c2cc3nc(-c4cncn4C)n(-c4cc(NCC5CC5)c5c(c4)n(C)c(=O)n5C)c3cc2F)cn1 | < 500 nM | > 5000 nM
38 | Cn1cc(-c2cc3nc(-c4cncn4C)n(-c4cc(C#C[Si](C)(C)C)c5c(c4)n(C)c(=O)n5C)c3cc2F)cn1 | 500 to 5000 nM | > 5000 nM
39 | COc1cc2c(cc1-c1cnn(C)c1)nc(-c1cncn1C)n2-c1cc(N2CC(C)(O)C2)c2c(c1)n(C)c(=O)n2C | < 500 nM | < 500 nM
40 | Cn1cc(-c2cc3nc(-c4cncn4C)n(-c4cc(N5CC6(COC6)C5)c5c(c4)n(C)c(=O)n5C)c3cc2F)cn1 | < 500 nM | 500 to 5000 nM
41 | Cc1ncc(-c2cc3nc(-c4cncn4C)n(-c4cc(OCCN5CCOCC5)c5c(c4)n(C)c(=O)n5C)c3cc2C(F)F)s1 | < 500 nM | 500 to 5000 nM
42 | CC(C)c1cc(-n2c(-c3cncn3C)nc3cc(-c4cnn(C)c4)c(C(F)(F)F)cc32)cc2c1n(C)c(=O)n2C | < 500 nM | > 5000 nM

Results, then the molecule that gave them:

Row | IC50 (CBP BRD protein) | IC50 (BRD4 (BD1) protein) | Structure (SMILES)
43 | 500 to 5000 nM | > 5000 nM | Cc1cc2nc(-c3cncn3C)n(-c3cc(NC(C)C)c4c(c3)n(C)c(=O)n4C)c2cc1F
44 | 500 to 5000 nM | > 5000 nM | COC(C)c1cc(-n2c(-c3cncn3C)nc3cc(-c4cnn(C)c4)c(F)cc32)cc2c1n(C)c(=O)n2C (stereo not shown)
45 | < 500 nM | > 5000 nM | Cc1ncc(-c2cc3nc(-c4cncn4C)n(-c4cc(N5CCOCC5)c5c(c4)n(C)c(=O)n5C)c3cn2)s1
46 | 500 to 5000 nM | > 5000 nM | COc1cc(-c2cc3nc(C(C)(C)C)n(-c4cc(NC(C)C)c5c(c4)n(C)c(=O)n5C)c3cc2F)ccn1
47 | < 500 nM | > 5000 nM | Cc1ncc(-c2cc3nc(C(C)(C)C)n(-c4cc(N5CC(C)(O)C5)c5c(c4)n(C)c(=O)n5C)c3cc2OC(F)(F)F)s1
48 | < 500 nM | > 5000 nM | Cn1cc(-c2cc3nc(-c4cncn4C)n(-c4cc(N5CCC(F)(F)C5)c5c(c4)n(C)c(=O)n5C)c3cc2F)cn1
49 | 500 to 5000 nM | > 5000 nM | Cc1ccc2c(-c3nc4cc(-c5cnn(C)c5)c(C#N)cc4n3-c3ccc4c(c3)n(C)c(=O)n4C)c[nH]c2c1
50 | < 500 nM | > 5000 nM | Cn1cc(-c2cc3nc(-c4cncn4C)n(-c4cc(OCc5ccccc5)c5c(c4)n(C)c(=O)n5C)c3cc2C(F)F)cn1
51 | < 500 nM | > 5000 nM | Cn1cc(-c2cc3nc(-c4cncn4C)n(-c4cc(N5CCN(C(=O)OC(C)(C)C)CC5)c5c(c4)n(C)c(=O)n5C)c3cc2C(F)F)cn1
52 | < 500 nM | > 5000 nM | Cc1ncc(-c2cc3nc(C(C)(C)C)n(-c4cc(N5CC(C)(O)C5)c5c(c4)n(C)c(=O)n5C)c3cc2C#N)s1
53 | < 500 nM | > 5000 nM | COC1(C)CN(c2cc(-n3c(C(C)(C)C)nc4cc(-c5cnn(C)c5)c(C(F)(F)F)cc43)cc3c2n(C)c(=O)n3C)C1
54 | < 500 nM | > 5000 nM | CC(C)Nc1cc(-n2c(C(C)(C)C)nc3cc(-c4cnn(C)c4)c(C(F)F)cc32)cc2c1n(C)c(=O)n2C
55 | < 500 nM | > 5000 nM | Cn1cc(-c2cc3nc(C(C)(C)C)n(-c4cc(C5CCC(C)(O)CC5)c5c(c4)n(C)c(=O)n5C)c3cc2C(F)F)cn1 (single isomer, unassigned)
56 | 500 to 5000 nM | > 5000 nM | CNCc1cc2c(cc1-c1cnn(C)c1)nc(C(C)(C)C)n2-c1cc(N2CCOCC2)c2c(c1)n(C)c(=O)n2C
57 | < 500 nM | > 5000 nM | Cn1cc(-c2cc3nc(C(C)(C)C)n(-c4cc(N5CCOCC5)c5c(c4)n(C)c(=O)n5C)c3cc2C(F)(F)F)cn1
58 | < 500 nM | > 5000 nM | Cn1cc(-c2cc3nc(-c4cncn4C)n(-c4cc(N5CCOCC5)c5c(c4)n(C)c(=O)n5C)c3cc2C(F)(F)F)cn1
59 | < 500 nM | > 5000 nM | Cn1cc(-c2cc3nc(C(C)(C)C)n(-c4cc(N5CCOCC5)c5c(c4)n(C)c(=O)n5C)c3cc2C(=O)O)cn1
60 | < 500 nM | > 5000 nM | Cn1cc(-c2cc3nc(-c4cncn4C)n(-c4cc(N5CC(F)(F)C5)c5c(c4)n(C)c(=O)n5C)c3cc2C(F)F)cn1
61 | < 500 nM | > 5000 nM | C#CC(C)(C)c1nc2cc(-c3cnn(C)c3)c(C#N)cc2n1-c1cc(OC(C)C)c2c(c1)n(C)c(=O)n2C
62 | < 500 nM | > 5000 nM | C[C@@H]1CCN1c1cc(-n2c(C(C)(C)C)nc3cc(-c4cnn(C)c4)c(F)cc32)cc2c1n(C)c(=O)n2C
